Antibody variant affinities, Ab-14 light chain, assay 1

Values reported by Engelhart et al. 2022, doi:10.1038/s41597-022-01779-4 (FLAb copy).

Target peptide (SARS-CoV-2 spike, HR2 region): PDVDLGDISGINAS

Parent: Ab-14, a human scFv built as VH, a (GGGGS)3 linker, VL. Only the CDRs of the light chain vary.
VH: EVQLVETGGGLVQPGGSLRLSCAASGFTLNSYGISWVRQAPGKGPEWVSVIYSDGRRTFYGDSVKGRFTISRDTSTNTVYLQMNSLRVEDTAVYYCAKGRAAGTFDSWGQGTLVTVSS
VL: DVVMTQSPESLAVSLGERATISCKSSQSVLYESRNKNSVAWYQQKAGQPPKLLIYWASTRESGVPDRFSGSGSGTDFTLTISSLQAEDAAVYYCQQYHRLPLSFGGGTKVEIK

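The starting antibody came from a phage panning campaign against this peptide. Library AAYL50 holds single substitutions and randomly drawn double and triple substitutions in the CDRs. AlphaSeq pools MATa yeast showing the antibodies with MATalpha yeast showing the peptide. The frequency of each diploid, read from paired DNA barcodes, reflects how well the two displayed proteins bind. Read counts were normalised to the haploid input and turned into Kd by a linear fit to BCL2-family pairs of known affinity, for each replicate. Mating was done three times.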

The parent's light chain CDRs are KSSQSVLYESRNKNSVA, WASTRES, QQYHRLPLS; each variant's own CDRs replace them letter for letter.
The read-out is the apparent dissociation constant on a log10 scale (nM): the lower, the stronger.
Averages over replicates are reported, and they cover detected replicates only.
"nd" marks a missing value. The strain was present, yet no cells mated with the target were sequenced in that replicate, which points to weak or no binding.
As a blank, each scFv also met three strains without target: over library AAYL50, 18% of these pairings were detected, typically at 4.19 and seldom below 2.99. The control count says in how many pairings with the empty strains this scFv gave a signal, with their mean in brackets.

| CDR-L1 | CDR-L2 | CDR-L3 | replicates, log10 nM | mean log10 Kd (nM) | signal with controls |
|---|---|---|---|---|---|
| TSSQSVLYESRNKRSVA | WASTRES | YQYHRLPLS | nd / nd / nd | nd | 1 of 9 (3.45) |
| KSSQSVLYESRNKNSVA | WASVTDS | QQYHRLPLS | nd / 4.52 / nd | 4.52 | 2 of 9 (4.35) |
| KSLQSVLYESRNKCSVA | WASTRES | QQYHRGPLS | nd / nd / nd | nd | 0 of 9 |
| KSSQQVLYESGNKNSVA | WASTREF | QQYHRLPLS | 1.34 / 1.14 / 0.87 | 1.12 | 0 of 9 |
| PSSQSVLYESRSKNSVA | WASTRES | QQYHRIPLS | 4.62 / 3.60 / nd | 4.11 | 3 of 9 (4.13) |
| KSSRSVEYESRNKNAVA | WASTRES | QQYHRLPLS | 0.96 / 1.13 / 1.18 | 1.09 | 5 of 9 (4.03) |
| KSSQSVLYASRNANSVA | WASQRES | QQYHRLPLS | 0.47 / 0.80 / 0.66 | 0.64 | 4 of 9 (4.62) |
| KSSQSVLYESRNKNSVA | WASKRTS | QMYHRLPLS | 3.15 / 2.68 / 3.24 | 3.02 | 1 of 9 (5.63) |
| KSSQSVLIESRNKNSVA | WASTRES | QFKHRLPLS | 1.99 / 1.57 / 1.85 | 1.80 | 3 of 9 (3.68) |
| KSVQSVLYESRNKNSVA | WASTRKS | QQYHRDPLS | nd / nd / nd | nd | 2 of 9 (3.57) |
| KFSQPVLYESRNKNSVA | WASTRES | QQYHRSPLS | 3.63 / nd / nd | 3.63 | 0 of 9 |
| KSSQSVLYESRNKNSVA | FASTRES | QQYHRSPLK | 1.15 / 1.02 / 1.58 | 1.25 | 0 of 9 |
| KSSQSLGYESRNKNSVA | WAVTRES | QQYHRLPLS | nd / nd / nd | nd | 0 of 9 |
| KSSQSVLYESRNNNSVA | WASTRES | QQYDRPPLS | nd / nd / 2.72 | 2.72 | 1 of 9 (2.27) |
| KSSQSVLYASRNKNSVA | WASFRNS | QQYHRLPLS | nd / nd / nd | nd | 1 of 9 (2.73) |
| KSSQSVLYESRNKNSVA | WASTRES | QQYHRLCLA | nd / nd / nd | nd | 2 of 9 (2.99) |
| KSSQSVLYESRNKNSVA | WQSTPES | QQYQRLPLS | 6.08 / 4.28 / nd | 5.18 | 4 of 9 (3.91) |
| KSSQSVLYCSRNKKSVA | WASTREK | QQYHRLPLS | nd / nd / nd | nd | 2 of 9 (3.94) |
| KSSQSVLYEDRFKNSVA | WASTRES | QQYHRLPLQ | 1.13 / 1.41 / 1.17 | 1.24 | 1 of 9 (3.35) |
| KSSNSVLYSSRNKNSVA | WASTRES | QQYKRLPLS | 2.54 / nd / 2.34 | 2.44 | 1 of 9 (3.71) |
| KSSQSVLYEPRNKNSRA | WASTRES | EQYHRLPLS | 3.66 / nd / nd | 3.66 | 0 of 9 |
| KSDQSVLYNSRNKNSVA | WASTRES | SQYHRLPLS | 3.29 / nd / 4.27 | 3.78 | 1 of 9 (4.09) |
| KSSQSVFYESRNKNQVA | AASTRES | QQYHRLPLS | 0.47 / 0.74 / 0.59 | 0.60 | 1 of 9 (4.94) |
| KSSQSVLYESRNKNEVA | WASVRES | QQYDRLPLS | 2.02 / 1.98 / 2.52 | 2.17 | 0 of 9 |
| KSTQEVLYESRNKNSVA | WASTRNS | QQYHRLPLS | 0.74 / 1.00 / 0.93 | 0.89 | 0 of 9 |
| KSSQPVLYEARNKCSVA | WASTRES | QQYHRLPLS | 2.59 / 2.50 / 2.72 | 2.60 | 5 of 9 (4.94) |
| KSSQSFLYESRNKNSYA | WASTRES | QQYHRLPQS | nd / nd / nd | nd | 1 of 9 (4.38) |
| KSSQSVLYESRNKNSVA | WASPRES | QQYPRLPLS | 4.85 / 5.10 / nd | 4.98 | 1 of 9 (3.79) |
| KSSQSVLYESRGKNSVA | WASTRES | QQYERLPLS | 0.80 / 0.96 / 1.00 | 0.92 | 1 of 9 (3.46) |
| HSSQSVLYKSRNKNSVA | WAATRES | QQYHRLPLS | 3.15 / 2.80 / 3.38 | 3.11 | 5 of 9 (4.15) |
| KSSQLVLYESRNKDSVA | WASTRES | QQYHRAPLS | 3.14 / nd / nd | 3.14 | 0 of 9 |
| KSQQSVLCESRNKNSVA | WASTRES | QQYHRLPNS | 2.97 / 2.90 / 2.96 | 2.94 | 6 of 9 (4.21) |
| KHSQSVLYESRNKNSVA | WASTRES | QQYHRLRLK | 2.28 / 2.29 / 1.76 | 2.11 | 0 of 9 |
| KSLQSVLYESRNKNSVA | WASTWES | QQYMRLPLS | nd / nd / nd | nd | 0 of 9 |
| KSSQSVLYRSDNKNSVA | WASTRES | QQYHLLPLS | nd / 3.57 / nd | 3.57 | 1 of 9 (4.92) |
| KSSQSVLYESRNKNSVA | WARTREP | QQYHALPLS | 3.09 / nd / nd | 3.09 | 2 of 9 (3.41) |
| KSSQSVLYTSRNKNSVA | WASTRES | PQQHRLPLS | 5.70 / nd / nd | 5.70 | 2 of 9 (3.41) |
| KSSTSVLHESRNKNSVA | WASTRES | QQYHRMPLS | 1.43 / 1.51 / 0.94 | 1.29 | 3 of 9 (4.09) |
| KSSASVMYESRNKNSVA | WASTRES | QQYLRLPLS | nd / nd / nd | nd | 1 of 9 (3.17) |
| KSSQSVLYVSRNYNSCA | WASTRES | QQYHRLPLS | nd / 4.01 / nd | 4.01 | 1 of 9 (4.25) |
| NSIQSVLYESRNKNSVA | WASTRES | QLYHRLPLS | 1.91 / 2.46 / 2.19 | 2.19 | 3 of 9 (3.81) |
| KSSQSVLYESRNKNSVA | QASNRER | QQYHRLPLS | 0.17 / 0.46 / 0.39 | 0.34 | 3 of 9 (3.77) |
| KSSQSVLYESRNKNSVA | WASTRAS | QQCKRLPLS | 1.77 / 1.11 / 1.18 | 1.35 | 2 of 9 (3.43) |
| KSSQMVLYHSRNKPSVA | WASTRES | QQYHRLPLS | 2.35 / 2.15 / 2.71 | 2.40 | 1 of 9 (5.09) |
| KSSQSVLYESRNKLSVK | WASARES | QQYHRLPLS | nd / nd / nd | nd | 0 of 9 |

For reference, 3 entries of the list once more:

CDR-L1,CDR-L2,CDR-L3,"replicates, log10 nM",mean log10 Kd (nM),signal with controls
KSSQSVLYESRNKNEVA,WASVRES,QQYDRLPLS,2.02 / 1.98 / 2.52,2.17,0 of 9
KSSQSVLYESRNKNSVA,WASTRAS,QQCKRLPLS,1.77 / 1.11 / 1.18,1.35,2 of 9 (3.43)
KSSQSVLYESRGKNSVA,WASTRES,QQYERLPLS,0.80 / 0.96 / 1.00,0.92,1 of 9 (3.46)

For reference, the parent read 0.65 as the reference entry and 1.68 as a member of this library.